The entries are a selection whose mix differs from that of the whole data set. Activity calls are given as the source filed them.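 How the source made its calls: active means mean inhibition of replicates at least 50% and at least half of replicates each reaching 50%; inconclusive means half or more replicates reach 50% but mean below 50%; inactive means the rest.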
molecular target: Transforming acidic coiled-coil-containing protein 3 (Homo sapiens) (UniProt Q9Y6A5); assay: disruptors of ARNT/TACC3 protein interaction, primary screen, biochemical, AlphaScreen, single concentration (AID 623870); conditions: AlphaScreen His-ARNT PAS-B/GST-TACC3 binding, luminescence; at 9.99 µM; stronger effect = higher value; TACC3 fragment carries E629A point mutation;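 further: 0% = complete ARNT plus TACC3 wells and 100% = ARNT alone without TACC3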

Structure (SMILES) | inhibition
CCC(=O)N(c1ccccc1)C1(COC)CCN(CCn2nnn(CC)c2=O)CC1 | inactive: 0.777%
CCC(=O)N(c1ccccc1)C1(COC)CCN(CCc2cccs2)CC1 | inactive: 1.25%
